{"sequences": {"note": "Sequences of proteins named here, by UniProt entry; tags and fusion partners are left off.", "UniProt P25103, whole entry": "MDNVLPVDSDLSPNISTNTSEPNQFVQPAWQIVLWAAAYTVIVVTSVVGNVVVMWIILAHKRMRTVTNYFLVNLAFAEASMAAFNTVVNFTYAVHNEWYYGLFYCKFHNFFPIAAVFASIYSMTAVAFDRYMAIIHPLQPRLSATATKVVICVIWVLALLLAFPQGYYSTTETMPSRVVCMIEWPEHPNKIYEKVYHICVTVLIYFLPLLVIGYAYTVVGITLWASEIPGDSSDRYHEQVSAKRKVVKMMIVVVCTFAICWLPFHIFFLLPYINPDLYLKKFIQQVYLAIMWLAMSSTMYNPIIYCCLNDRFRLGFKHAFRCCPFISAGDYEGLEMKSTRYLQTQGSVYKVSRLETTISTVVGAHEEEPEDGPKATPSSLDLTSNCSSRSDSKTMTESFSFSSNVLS"}, "source": "patent US8470816B2", "about": "“Nitrogen-containing heterocyclic compound and use thereof” (Takeda Pharmaceutical Company Limited, priority 2007, dated 2013)", "target": "human NK1 receptor (Homo sapiens (Human), UniProt P25103)", "experiment": "Human NK1 receptor binding assay: radioligand (125I-Bolton-Hunter-SP) binding inhibition using receptor from human lymphoblast cells (IM-9)", "settings": "IM-9 cell receptor, read-out: hNK1 IC50"}
{"smiles": "CC(=O)N1CCC(C(=O)N2C[C@@H](N(C)C(=O)c3cc(C(F)(F)F)cc(C(F)(F)F)c3)[C@H](c3ccc(Cl)c(Cl)c3)C2)CC1", "note": "(racemic) [Example 82, N-[(3S*,4R*)-1-[(1-acetylpiperidin-4-yl)carbonyl]-4-(3,4-dichlorophenyl)pyrrolidin-3-yl]-N-methyl-3,5-bis(trifluoromethyl)benzamide]", "values": [{"measurement": "IC50", "value": 1.5, "unit": "nM"}]}
